Source: US20230026259A1, “CA2 COMPOSITIONS AND METHODS FOR TUNABLE REGULATION” (Obsidian Therapeutics, Inc., priority 2019, published 2023)

Tests used:
human primary T cells = assay: IL15-dependent expansion: T cell numbers and CD4/CD8 ratio by flow cytometry; type: cell-based; conditions: Acetazolamide treatment, 10 days
Procedure: To test IL15-dependent expansion, beads were removed on day 10 and cells were washed. IL15 expressing or control T cells were then cultured in fresh culture media alone or in the presence of Acetazolamide or exogenous IL15 (1 ng/ml) for 10 days. The T cell numbers (Table 30) and the change in CD4/CD8 ratio (Table 31) were determined by flow cytometry.

T cells = assay: CD40L expression of CA2 regulated CD40L constructs in T cells by FACS (dose response, time course); type: cell-based; conditions: CD4+ T cells with OT-001990, Acetazolamide 0.05 μM, 24 hours
From the text: CD40L constructs regulated by Carbonic anhydrase DDs were generated and cloned into lentiviral vectors. Purified T cells were thawed and cultured with aCD3 aCD28 Dynabeads (in the ratio of 3 beads to 1 T cell).
The constructs were transduced in T cells the next day. […]

For `CC(=O)Nc1nnc(S(N)(=O)=O)s1` [Acetazolamide, reference compound], the CD4/CD8 ratio (human primary T cells) was “decreased” and the “CD40L MFI” value (T cells) was 123.
